By IC50 is commonly meant the concentration that inhibits the measured activity by half.

The results in this text go back to US7517889B2, “2,6-substituted-4-monosubstitutedamino-pyrimidine as prostaglandin D2 receptor antagonists” (Aventis Pharmaceuticals, Inc., priority 2004, dated 2009).

This test concerns the target T1, DP receptor (Homo sapiens, UniProt Q13258).
T1 construct: the human cell line LS174T, which expresses the endogenous DP receptor; endogenous in cells; host or cells: LS174T human cell line
T1 sequence (Q13258 1-359): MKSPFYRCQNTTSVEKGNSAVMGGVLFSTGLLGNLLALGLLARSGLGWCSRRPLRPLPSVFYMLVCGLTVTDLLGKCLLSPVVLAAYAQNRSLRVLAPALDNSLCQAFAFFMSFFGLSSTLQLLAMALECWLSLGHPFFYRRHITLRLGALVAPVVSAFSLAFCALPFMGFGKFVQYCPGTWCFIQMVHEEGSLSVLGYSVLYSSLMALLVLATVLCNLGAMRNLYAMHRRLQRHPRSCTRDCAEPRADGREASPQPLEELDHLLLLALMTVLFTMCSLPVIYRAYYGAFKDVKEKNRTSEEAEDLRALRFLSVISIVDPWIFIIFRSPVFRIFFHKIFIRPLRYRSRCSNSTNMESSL
Description: SPA cAMP assay in human LS174 T cells (human DP functional assay). The test is classed as cell-based. The settings on record: inhibition of PGD2 (15 nM final) stimulated cAMP, LS174T cells expressing endogenous DP receptor. On the procedure: The inhibitory effects of the compounds according to the invention are assessed in a human DP functional assay. A cAMP assay is employed using the human cell line LS174T, which expresses the endogenous DP receptor.
Protocol for SPA cAMP Assay in Human LS174 T Cells
• 1) Add equal volumes of tracer, antiserum and SPA anti-rabbit reagent to a bottle, ensuring that a sufficient volume of this mixture is prepared for the desired number of wells (150 μL/well). • 2) Mix thoroughly. • 3) This immunoreagent solution should be freshly prepared before each assay and not re-used.
Add 50 μL of […] IBMX into 100 mL PBS to make a final concentration of 100 μM and sonicate at 30° C. for 20 minutes.
Before each assay, it is freshly prepared. Add 3 μL of 10 mM stock solution to 20 mL DMSO, mix it thoroughly, and transfer 10 mL to 40 mL PBS.
Compound dilution is carried out in Biomex 2000 (Beckman) using Method 1_cAMP DP 11 points.
5 μL of each compound from the 10 mM stock compound plates is transferred to the wells of a 96-well plate respectively as below.
Fill the plate with 45 μL of DMSO except column 7 is filled with 28 μL DMSO. Pipette column 1 thoroughly, and transfer 12 μL into column 7 parallel. […]
The cAMP concentrations (pmol/mL) of unknown samples are calculated from a standard curve of cAMP versus CPM. % inhibition is calculated using the following formula: […]
A general note: cAMP levels reflect the balance of adenylyl cyclase and phosphodiesterase activity.

For `COc1ccc(CCNc2cc(-c3cccc(-c4cnco4)c3)nc(OC)n2)cc1` [Example 11(b), [2-Methoxy-6-(3-oxazol-5-yl-phenyl)-pyrimidin-4-yl]-[2-(4-methoxy-phenyl)-ethyl]-amine], it took 2.6 nM to reach half-maximal inhibition (IC50).
